Tests used:
human GLP-1 receptor [1] = target: T1, human GLP-1 receptor (Homo sapiens, UniProt P43220); test: cell-based or functional assay
human GLP-1 receptor [2] = target: T1, human GLP-1 receptor; test: GLP-1 activity assay, stimulation of cAMP formation (AlphaScreen, membranes of BHK467-12A cells); format: biochemical; parameters: expressed in transfected cells; host or cells: BHK467-12A (tk-ts13), stably transfected; purified plasma membranes; details: G2, G3: times higher, SEQ ID NO: 4: times that of G1
Protocol: The following assay may be used to determine the activity (potency) of GLP-1 compounds. In brief, the ability of GLP-1 compounds to stimulate formation of cyclic AMP (cAMP) in a medium containing the human GLP-1 receptor is measured. In principle, purified plasma membranes from a stable transfected cell line, BHK467-12A (tk-ts13), expressing the human GLP-1 receptor are stimulated with the GLP-1 compound in question, and the potency of cAMP production is measured using the AlphaScreen™ cAMP Assay Kit from Perkin Elmer Life Sciences. The cells are grown at 5% CO2 in DMEM, 5% FCS, 1% Pen/Strep (Penicillin/Streptomycin) and 0.5 mg/ml of the selection marker G418. Cells at approximate 80% confluence are washed 2× with PBS (Phosphate Buffered Saline) and harvested with Versene (aqueous solution of the tetrasodium salt of ethylenediaminetetraacetic acid), centrifuged 5 min at 1000 rpm and the supernatant removed. The additional steps are all made on ice. […] Suspension in Buffer 2, homogenization and centrifugation is repeated once and the membranes are resuspended in Buffer 2 and ready for further analysis or stored at −80° C. […] Formed cAMP is counted and measured at an AlphaFusion Microplate Analyzer. The EC50 values are calculated, e.g. using the Graph-Pad Prism software (version 5).

| Substance | EC50 of cAMP formation (AlphaScreen cAMP assay), relative to that of compound G1 (times the EC50 of compound G1) (human GLP-1 receptor [1]) | EC50 value relative to that of compound G1 (human GLP-1 receptor [2]) |
| --- | --- | --- |
| exendin-4(7-45) (the compound of SEQ ID NO: 4) (peptide) | 0.3 | – |
| N-epsilon37-[2-(2-{2-[2-(2-{2-[(S)-4-Carboxy-4-({trans-4-[(19-carboxynonadecanoylamino)methyl]-cyclohexanecarbonyl}amino)butyrylamino]ethoxy}ethoxy)acetylamino]ethoxy}ethoxy)acetyl][Des-aminoHis7,Glu22,Arg26,Arg34,Lys37]GLP-1-(7-37) [compound G2] | – | about 5 times |

Reference: US20120172298A1, “GLP-1 AND FGF21 COMBINATIONS FOR TREATMENT OF DIABETES TYPE 2” (Novo Nordisk A/S, priority 2009, published 2012)
